Measured values reported in paper PMC3124361 (Journal of medicinal chemistry, 2011).

What was measured:
[1] = target: T1, PfDHODH (Plasmodium falciparum, UniProt Q08210); test: PfDHODH DCIP dye-based enzyme assay; assay type: biochemical; conditions: 33 vs 49, 34 vs 45
T1 sequence (Q08210 158-569 limits assumed): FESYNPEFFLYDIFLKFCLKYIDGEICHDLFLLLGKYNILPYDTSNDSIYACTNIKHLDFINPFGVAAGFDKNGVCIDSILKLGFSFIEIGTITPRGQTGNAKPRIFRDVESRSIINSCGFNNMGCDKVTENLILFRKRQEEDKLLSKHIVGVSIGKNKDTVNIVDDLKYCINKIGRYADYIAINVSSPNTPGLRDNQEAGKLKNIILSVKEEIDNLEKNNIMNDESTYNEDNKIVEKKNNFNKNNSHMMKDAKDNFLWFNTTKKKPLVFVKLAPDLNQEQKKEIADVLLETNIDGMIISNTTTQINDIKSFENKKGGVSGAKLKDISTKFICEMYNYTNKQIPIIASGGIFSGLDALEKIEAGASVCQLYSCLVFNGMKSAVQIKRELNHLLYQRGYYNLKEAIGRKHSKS

[2] = target: T1, PfDHODH; conditions: read-out: IC50 against the enzyme; initial lead; ref [15]; cited from earlier work

SMILES	fold more potent than equivalent analog with cycloalkyl ring bound to N1 [1]	IC50 [2]
Cc1cc(Nc2ccc3c(c2)CCC3)n2ncnc2n1 [Compound 34, N-(2,3-dihydro1H-inden-5-yl)-5-methyl-[1,2,4]triazolo[1,5-a]pyrimidin-7-amine]	2 fold	
Cc1cc(Nc2ccc3c(c2)CCCC3)n2ncnc2n1 [Compound 33, 5-methyl-N-(5,6,7,8-tetrahydronaphthalen-2yl)-[1,2,4]triazolo[1,5-a]pyrimidin-7-amine]	15 fold	
Cc1cc(Nc2ccc3ccccc3c2)n2ncnc2n1 [Compound 1, (5-methyl-[1,2,4]triazolo[1,5-a]pyrimidin-7-yl)-naphthalen-2-yl-amine]		50 to 100 nM
